A short description of the series: Solubility / appearance in undiluted fragrance oil. In kind it is physicochemical. Conditions: 180 μL (2% v/v) in 9 mL model fragrance oil, vortexed ~1 min. As to the method:
Treatment of Undiluted Fragrance Oil: In 15 ml vials, to separate aliquots of the mixed model fragrance oil (9 mL each aliquot) was added 180 μL (2% v/v) of each SOP, and the samples were vigorously vortexed for ˜1 min, to obtain a homogenous, clear solution (the AKG-NMDEA was an exception in that it was hazy). The resulted samples were then allowed to stand on the laboratory benchtop under ambient light and temperature. POV measurements were taken as a function of time after the addition; the headspace within the vial was refreshed with the ambient atmosphere with each opening of the vial.

Consider `CN(CCO)CCO.CN(CCO)CCO.O=C(O)CCC(=O)C(=O)O` [AKG-NMDEA, AKG di[N-methyldiethanolammonium] salt], for which the “appearance of solution in undiluted fragrance oil” value is recorded as “hazy”.

Source of the values: patent publication US20240225983A1, “COMPOSITIONS AND METHODS FOR PREVENTING OR REDUCING AUTOXIDATION OF FRAGRANCE AND FOOD OILS” (Firmenich SA, priority 2021, published 2024).
